Experimental findings from PubChem BioAssay are described below.

Molecules are shown by their SMILES. The entries are a selection whose mix differs from that of the whole data set. Active and inactive are the calls of the source. Rule as the data show it: active = inhibition above about 28%; inactive = the rest.

A short description of this experiment: StAR promoter reporter inhibitors, counter-screen for LRH-1 inverse agonist project, cell-based, luminescence, high throughput (AID 651611). As to conditions: StAR promoter luciferase reporter counterscreen, at 3.6 µM, hits give high values. (A counterscreen serves to expose hits that act by an unwanted route or on another target.)

For the compound `O=[N+]([O-])c1cc([N+](=O)[O-])c(-c2cnn(-c3ccccc3)c2)c([N+](=O)[O-])c1`, the inhibition was inactive: 15.1%.

Broadly, the inhibition is the percentage by which the read-out fell short of the control.
